The entries are a selection whose mix differs from that of the whole data set. Calls of active or inactive are those of the source. Rule for the calls: active = hit-call score of the fitted dose curve at least 0.9, where 1 is the maximum; inactive = score below 0.9.
Legend:
[1] = read-out: Interleukin 17F (IL17F), IL17F (gene 112744); assay: BSK_BT_xIL17F: BioMAP Diversity Plus: BT Assay for Interleukin 17F (IL17F) Biomarker Activity (AID 2284243); details: primary human B cells with PBMC
Procedure, shortened: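 Human PBMC co-cultured with B cells, compound exposure 24 h; secreted IL-17F quantified by Luminex xMAP, referenced to DMSO control. PBMC viability measured in parallel by Alamar Blue reduction.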

[2] = read-out: Actin alpha 1 (ACTA1), ACTA1 (gene 58); assay: BSK_MyoF_ACTA1: BioMAP Diversity Plus: MyoF Assay for Actin alpha 1 (ACTA1) Biomarker Activity (AID 2284244); details: primary human lung fibroblasts
Procedure, shortened: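 Lung fibroblasts, human primary, 24 h compound exposure → a-SMA ELISA. Positive-direction fit vs DMSO control.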

[3] = read-out: Interleukin 2 (IL2), IL2 (gene 3558); assay: BSK_BT_xIL2: BioMAP Diversity Plus: BT Assay for Interleukin 2 (IL2) Biomarker Activity (AID 2284245); details: primary human B cells with PBMC
Procedure, shortened: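 B cell + PBMC co-culture (human primary), compound added, 24 h incubation; secreted IL-2 measured multiplexed on Luminex xMAP; gain-of-signal fit vs DMSO.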

[4] = read-out: Basic fibroblast growth factor (bFGF), FGF2 (gene 2247); assay: BSK_MyoF_bFGF: BioMAP Diversity Plus: MyoF Assay for Basic fibroblast growth factor (bFGF) Biomarker Activity (AID 2284246); details: primary human lung fibroblasts
Procedure, shortened: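 ELISA-measured bFGF level serves as the read-out, taken 24 h after chemical dosing of human lung fibroblasts. Values represent signal gain over the DMSO negative control.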

[5] = read-out: Collagen IV, COL4A1 (gene 1282); assay: BSK_MyoF_CollagenIV: BioMAP Diversity Plus: MyoF Assay for Collagen IV Biomarker Activity (AID 2284247); details: primary human lung fibroblasts
Procedure, shortened: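 Steps: dose human lung fibroblasts; culture 24 h; quantify Collagen IV by ELISA; fit increase versus DMSO control. Parallel SRB total-protein staining (0.1% SRB after 10% TCA fixation, 560 nm) tracks overt cytotoxicity.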

[6] = read-out: Plasminogen activator inhibitor-1 (PAI1), SERPINE1 (gene 5054); assay: BSK_MyoF_PAI1: BioMAP Diversity Plus: MyoF Assay for Plasminogen activator inhibitor-1 (PAI1) Biomarker Activity (AID 2284256); details: primary human lung fibroblasts;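 note: PAI-1 read 24 h after compound addition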
Procedure, shortened: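 Primary human lung fibroblasts treated with chemical for 24 h; PAI-1 levels quantified by ELISA relative to DMSO. Cytotoxicity was assessed in parallel cultures by SRB total-protein staining (0.1% SRB after 10% TCA fixation, 560 nm).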

[7] = read-out: Interleukin-8 (IL8), CXCL8 (gene 3576); assay: BSK_MyoF_IL8: BioMAP Diversity Plus: MyoF Assay for Interleukin-8 (IL8) Biomarker Activity (AID 2284261); details: primary human lung fibroblasts
Procedure, shortened: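 Human lung fibroblast (MyoF system) cultures dosed for 24 h, then IL-8 measured by ELISA. Response taken relative to DMSO; parallel SRB total-protein staining for cytotoxicity.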

[8] = read-out: Decorin, DCN (gene 1634); assay: BSK_MyoF_Decorin: BioMAP Diversity Plus: MyoF Assay for Decorin Biomarker Activity (AID 2284265); details: primary human lung fibroblasts
Procedure, shortened: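 Human lung fibroblast cultures were dosed for 24 h, and decorin was then measured by ELISA. Parallel cultures were stained with sulforhodamine B for total protein as a cytotoxicity check. Gain of signal was fitted relative to DMSO.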

[9] = BSK_MyoF_SRB: Viability Assessment in the BioMAP Diversity Plus: MyoF Assay (AID 2284267); details: primary human lung fibroblasts;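 note: total protein by SRB absorbance in parallel cultures as cytotoxicity measure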
Procedure, shortened: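 Read-out is SRB absorbance at 560 nm, reflecting total protein in parallel lung fibroblast cultures harvested 24 h after compound addition. Cells were TCA-fixed (10%) and stained with 0.1% SRB; activity is referenced to DMSO.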

[10] = read-out: Matrix Metallopeptidase 1 (MMP1), MMP1 (gene 4312); assay: BSK_MyoF_MMP1: BioMAP Diversity Plus: MyoF Assay for Matrix Metallopeptidase 1 (MMP1) Biomarker Activity (AID 2284268); details: primary human lung fibroblasts
Procedure, shortened: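 Human lung fibroblast primary cells; MMP1 measured by ELISA 24 h after dosing, fitted in the positive direction relative to DMSO. Parallel SRB staining (0.1%, after 10% TCA fixation, 560 nm) assesses overt cytotoxicity.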

Measured: outcome

CC(C)OP(OC(C)C)OC(C)C
inactive: all assays above
